From patent US6579881B2 (Eisai Co., Ltd., priority 1997, dated 2003)

Sequences of proteins named here, by UniProt entry; tags and fusion partners are left off.
UniProt P14842, whole entry, looked up: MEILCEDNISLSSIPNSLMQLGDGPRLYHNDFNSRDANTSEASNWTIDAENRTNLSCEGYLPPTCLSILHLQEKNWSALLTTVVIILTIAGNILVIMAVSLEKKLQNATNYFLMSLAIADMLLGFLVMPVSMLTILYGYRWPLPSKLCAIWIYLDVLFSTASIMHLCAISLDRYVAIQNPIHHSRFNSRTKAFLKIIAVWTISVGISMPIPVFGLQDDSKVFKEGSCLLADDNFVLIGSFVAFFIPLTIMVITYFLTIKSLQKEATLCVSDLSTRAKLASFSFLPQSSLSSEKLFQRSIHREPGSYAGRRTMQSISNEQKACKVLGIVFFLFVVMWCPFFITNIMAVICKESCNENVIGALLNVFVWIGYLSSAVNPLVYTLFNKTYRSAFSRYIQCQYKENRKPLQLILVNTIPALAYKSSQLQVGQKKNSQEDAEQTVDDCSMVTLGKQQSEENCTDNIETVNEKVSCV

Target: serotonin 2 receptor (Rattus norvegicus, UniProt P14842)
Assay: Binding test on [3H] ketanserin (serotonin 2 receptor)
Conditions: read-out: 5HT2; [3H] ketanserin 0.3 nM, receptor fraction of rat cerebral cortex

**Q.** `OC[C@@H]1CN(CCc2ccc(F)cc2)CC[C@@H]1N1CCc2ccccc21` (relative stereo) [Example 81, cis-1-[1-(4-fluorophenethyl)-3-hydroxymethylpiperidin-4-yl]indoline] was tested. Which Ki did it give?
**A.** 119 nM
